From patent US20200253907A1, “Compositions and Methods for Treating Neurodegenerative Diseases” (The Regents of the University of California, priority 2017, published 2020)

Tests used:
[1] = tested on: primary mouse hippocampal neurons; conditions: 200 μM (FIG. 17); pretreated 2 hours; Aβ15-25 peptide 24-48 hours
[2] = tested on: primary rat hippocampal neurons; conditions: 200 μM (FIG. 18); pretreated 2 hours; Aβ15-25 peptide 24-48 hours

For `CCCCCCCCOC(=O)C(=O)CCC(=O)O` [octyl α-KG, octyl α-ketoglutarate], the “protection against Aβ induced neuronal dysfunction and cell death” value [1] was “protects primary mouse hippocampal neurons” and the “protection against Aβ induced cell death” value [2] was “protects primary rat hippocampal neurons”.
